## AlphaSeq binding of Ab-95 light chain variants to a spike HR2 peptide

From the AlphaSeq antibody data of Engelhart et al. 2022 (doi:10.1038/s41597-022-01779-4), copy in the FLAb collection.

Target: peptide PDVDLGDISGINAS, taken from heptad repeat 2 (HR2) of SARS-CoV-2 spike.

Each scFv is VH, a 15-residue (Gly4Ser)3 linker, VL, as in the parent Ab-95, and differs from it in the CDRs of the light chain only.
VH: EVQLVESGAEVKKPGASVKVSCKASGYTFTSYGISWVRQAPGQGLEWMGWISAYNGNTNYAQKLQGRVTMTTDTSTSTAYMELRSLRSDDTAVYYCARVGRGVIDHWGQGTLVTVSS
VL: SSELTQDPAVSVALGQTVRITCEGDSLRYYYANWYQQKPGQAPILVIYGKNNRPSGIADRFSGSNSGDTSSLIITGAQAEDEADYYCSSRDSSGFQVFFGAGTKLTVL

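The library (AAYL52) carries one to three amino acid substitutions per variant, with no insertions or deletions. AlphaSeq pools MATa yeast showing the antibodies with MATalpha yeast showing the peptide. After mating in shaken culture at 30 °C for 16 h, diploids were selected and their barcode pairs sequenced. Read counts were normalised to the haploid input and turned into Kd by a linear fit to BCL2-family pairs of known affinity, for each replicate. The assay was run in three technical replicates.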

Each variant is given by its three light chain CDRs, as the data file delimits them; those of the parent are EGDSLRYYYAN, GKNNRPS, SSRDSSGFQVF. Numbers give log10(Kd / nM), so 0 is 1 nM and 3 is 1 µM. Smaller is tighter. "ND" means that the variant was in the library but no mating with the target was seen in that replicate; the authors take this as a sign of poor binding, and no number exists. Parent in this assay: reference entry 2.31, copy in this library 2.25.

CDR-L1	CDR-L2	CDR-L3	log10 Kd, replicates	empty controls
EGDSCRYYYAL	GKNNRPS	SSRDSSGFRVF	3.55 ND 3.32	2/9 (3.79)
EGDSVRYYYAN	PKNNRPS	SSCDSSGFQVF	4.31 ND ND	2/9 (3.15)
EGDSLRYYYAQ	GKNNRSS	SSRDSAGFQVF	ND 4.00 ND	1/9 (3.91)
EGDSLRYQYAN	GKNNRPN	SSRDASGFQVF	0.62 0.60 -0.10	4/9 (3.63)
EGNSLRSYYAN	GKNNRPS	SSRDSSGLQVF	4.64 4.99 ND	1/9 (4.18)
EGDSLRYYYSN	GKRNRTS	SSRDSSGFQVF	3.53 ND 3.32	2/9 (4.40)
EGDSLRYKYAN	GKNNRPS	SSRDSEGFQVL	1.48 1.35 1.20	3/9 (3.82)
EGDSLRYYYAN	VKNNRPS	SMRDSSGFQVT	2.83 3.60 3.79	4/9 (3.52)
KGDSLRYYYAN	GKNNRPS	SSNDSEGFQVF	2.99 2.97 2.18	2/9 (3.50)
GGGSLRYYYMN	GKNNRPS	SSRDSSGFQVF	1.91 2.40 1.51	4/9 (4.00)
CGDSLVYYYAN	GKNNRPS	SSIDSSGFQVF	ND ND ND	1/9 (3.88)
EGDSLRVYYAN	GKNNRPS	RSRDSSGLQVF	3.80 3.57 4.59	2/9 (4.49)
EGSSLRYPYAN	HKNNRPS	SSRDSSGFQVF	3.17 3.76 3.10	3/9 (4.31)
EGDSLRYSYAN	GKNNRPS	SSRHSSNFQVF	1.61 1.66 0.99	1/9 (5.10)
EGDSLRYYYAN	GKNNRPW	SSRDESGSQVF	3.53 2.02 1.88	0/9
PGPSLRYYYAN	GKNNRPS	SSRDSSPFQVF	ND ND ND	2/9 (3.96)
EGDSLRYYYAN	SKNNQPS	SSRDSSGFQVF	3.71 5.38 ND	1/9 (4.70)
EGDSLRYYYGN	GWNNRPG	SSRDSSGFQVF	ND 4.24 ND	1/9 (3.86)
ESDSLRYYYAN	GKNNRPS	SSRDSSGFQVA	3.17 2.84 2.42	2/9 (4.24)
EGDSLRYYYAN	GKNNRPV	SSVHSSGFQVF	1.60 1.69 1.83	2/9 (4.27)
EGDSERYYCAN	GKENRPS	SSRDSSGFQVF	ND 3.49 ND	4/9 (3.83)
EGDSLRYHYAN	SKNKRPS	SSRDSSGFQVF	2.11 1.86 1.20	0/9
EGDGLRYYYAN	GKNNRPR	SSRASSGFQVF	3.88 4.16 3.17	4/9 (3.72)
EGTSLRQYYAN	GKNNRPS	SSRDTSGFQVF	2.49 2.51 2.92	3/9 (4.42)
SGDSLYYYYAN	GKNNRPS	SSRDFSGFQVF	ND ND ND	1/9 (2.63)
WGDSPRYYYAN	GKNNRPS	SSRDSSGFMVF	5.51 5.64 2.77	5/9 (3.85)
EIDSLRYYYAN	KKNNRPS	NSRDSSGFQVF	3.22 ND 4.33	2/9 (4.30)
EGDSLKYVYAN	GKNNRPS	SSHDSSGFQVF	2.97 3.51 3.88	3/9 (3.53)
EGDSLIYIYAN	GKNNRPS	SSRDSSGFQVK	ND ND ND	2/9 (4.95)
EGDSLRYYYAN	GVNNQPS	SSRDSSRFQVF	3.94 3.92 3.65	6/9 (4.17)
EGDSLRYYYDN	GKNNRPS	SSRDWSGSQVF	3.12 2.78 2.74	2/9 (3.40)
EGDSLFYYYAN	GKNYRPK	SSRDSSGFQVF	3.05 4.24 3.21	4/9 (3.97)
EGDHLRYYYAN	YKNERPS	SSRDSSGFQVF	3.79 4.24 ND	3/9 (3.72)
EGDELRYYYAN	GKNNRPS	PSEDSSGFQVF	ND ND ND	1/9 (3.76)
EGDSLRPYYAN	GKNNRPC	SSCDSSGFQVF	3.67 3.66 ND	4/9 (4.49)
ERDSLRYYAAN	WKNNRPS	SSRDSSGFQVF	3.20 ND ND	0/9
EGDSLRYYYAN	GKNNRPS	SSSDISGFQVF	2.90 2.61 2.22	5/9 (4.44)
EGDSYRYAYAN	GKNNIPS	SSRDSSGFQVF	2.26 2.10 1.91	2/9 (3.81)
EGDSLHYYYAN	GKQNRPS	SPRDSSGFQVF	ND 4.00 3.41	2/9 (4.73)
EGQSLRYYYAN	GKNKRPS	SSRDSSGIQVF	3.34 3.10 3.25	3/9 (3.75)
EGDSLRYYYAN	GKNARPS	VSRDSSEFQVF	3.91 4.17 3.81	1/9 (4.51)

As a blank, each scFv also met three strains without target: over library AAYL52, 28% of these pairings were detected, typically at 3.91 and seldom below 2.90. The control count says in how many pairings with the empty strains this scFv gave a signal, with their mean in brackets.